# Test system: HuIFRG46/ADIR mRNA
# Assay: HuIFRG46/ADIR mRNA, Northern blot, interferon-treated HeLa cells in vitro
# Format: cell-based, human
# Settings: HeLa cells, 10,000 IU, eight hours
# Description: Male DBA/2 mice were injected intraperitoneally (ip) or oromucosally (om) with 100,000 IU of recombinant murine IFN-α purchased from Life Technologies Inc. For ip administration, animals were treated with 100,000IU IFN-α in 200 μl of PBS or treated with an equal volume of PBS alone. For om administration, 10 μl of IFN-α or excipient was applied with a 1 to 20 μl capacity adjustable micropipette to the nostrils of the mice. Four hours after ip or om treatment, the animals were sacrificed by cervical dislocation and tissue from the oral cavity and the spleen were removed using conventional procedures. […] The blots were first exposed to autoradiography and then quantified using a Phospholmager according to the manufacturer's instructions.
# HeLa cells were treated in vitro with 10,000 IU of recombinant human IFN-α2 (Intron A from Schering-Plough) in PBS or with an equal volume of PBS alone. […] Enhanced levels of mRNA for HUIFRG46/ADIR protein (approximately 10-fold) were detected in samples of RNA extracted from IFN-α treated HeLa cells compared to samples treated with PBS alone.
substance,measurement,value
IFN-α2: recombinant human IFN-α2 (Intron A from Schering-Plough) [reference compound],enhanced levels of mRNA for HuIFRG46/ADIR protein vs PBS alone,approximately 10 fold

# Source: patent US20030194732A1, “Interferon-alpha induced gene” (priority 2000, published 2003)
